Where two headings read alike, the source gives them in different places.
Assays:
[1] = molecular target: saFabI (Staphylococcus aureus (strain MRSA252), UniProt Q6GI75); details: read-out: Ki^app, [S]/KS = 2, binds to the E-NADP+ binary complex, from Ref 31; cited from earlier work
[2] = molecular target: ecFabI (Escherichia coli (strain K12), UniProt P0AEK4); assay: ecFabI inhibition kinetics; format: biochemical; details: single point progress curve analysis

**Q.** With `CCc1ccc(Oc2ccccc2)c(O)c1` [PT01, 5-ethyl-2-phenoxyphenol] as the compound, how does the Ki [1] read?
**A.** Its Ki is 121 ± 10.1 nM.

**Q.** What about the Ki ([2]; Ki (nM), binds E-NAD+ binary complex) of the same compound?
**A.** Its Ki is 0.2 nM.

**Q.** What about the Ki ([2]; [S]/KS = 0.19, binds E-NAD+ binary complex, read-out: Ki^app) of the same compound?
**A.** Its Ki is 33.6 nM.

Source: patent US10071965B2, “Pyridone FabI inhibitors and uses thereof” (priority 2015, dated 2018)
